## scFv variants of Ab-14 (heavy chain) against a SARS-CoV-2 spike peptide

Reference: Li et al. 2023, doi:10.1038/s41467-023-39022-2. File: FLAb, binding data.

The target is the same throughout: PDVDLGDISGINAS, from the HR2 region of SARS-CoV-2 spike.

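The starting antibody came from a phage panning campaign against this peptide. The variants were designed computationally from a first round of random CDR variants and then made and measured. Group labels follow the data file (Ctrl: baseline library sampled from a position-specific scoring matrix, with some repeated check sequences; GPLM: also part of the Gaussian process libraries; Gen: genetic algorithm; a sequence that several methods proposed may carry one label only). In AlphaSeq, yeast of one mating type display the scFv and yeast of the other type display the target. After mating in shaken culture at 30 °C for 16 h, diploids were selected and their barcode pairs sequenced. Read counts were normalised to the haploid input and turned into Kd by a linear fit to BCL2-family pairs of known affinity, for each replicate. Mating was done six times.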

Parent: Ab-14, a human scFv built as VH, three GGGGS repeats, VL. Only the CDRs of the heavy chain vary.
VH: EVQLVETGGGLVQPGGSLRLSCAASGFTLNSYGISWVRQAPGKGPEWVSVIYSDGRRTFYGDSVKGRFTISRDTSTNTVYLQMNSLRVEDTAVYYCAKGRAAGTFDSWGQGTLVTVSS
VL: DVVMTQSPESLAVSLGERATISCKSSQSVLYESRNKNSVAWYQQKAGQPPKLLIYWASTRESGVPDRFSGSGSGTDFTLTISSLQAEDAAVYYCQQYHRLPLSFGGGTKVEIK

Substitutions are numbered in sequence along the VH above, starting at 1 (not Kabat).
Values are log10 of the apparent Kd in nM; lower means stronger binding.
Where no diploid with the target was found in that replicate, the entry reads "n.d.": below detection, most likely a poor binder, though not proof of it.
Values of this round are not directly comparable with the first-round values of the same sequences.

changes,group,"log10 Kd, replicates",empty controls
G61S A102P,Ctrl,0.75 1.07 0.36 1.29 1.00 1.12,0/18
R100T T104S,Ctrl,0.67 0.42 1.47 0.61 0.33 0.35,0/18
T28S A101E,Ctrl+GPLM_Gen,-0.70 -0.45 -0.27 -0.56 -0.36 -0.21; -0.15 -0.13 -0.11 -0.48 -0.16 -0.36,0/36
S31D A101G T104A,Ctrl,n.d. n.d. n.d. n.d. n.d. n.d.,0/18
K65R A102T G103S,Ctrl,n.d. n.d. n.d. n.d. n.d. n.d.,0/18
F27T F59I R100K T104R,Ctrl,n.d. n.d. n.d. n.d. n.d. n.d.,0/18
L29I S31Q G33Y F59A,Ctrl,n.d. n.d. n.d. n.d. n.d. n.d.,0/18
S53V F59A A101E,Ctrl,-0.80 -0.28 -0.49 -1.03 -0.49 -0.09,0/18
T58C R100G G103S,Ctrl,n.d. n.d. n.d. n.d. n.d. n.d.,1/18 (1.06)
G61T S63D,Ctrl,n.d. n.d. n.d. n.d. 1.07 n.d.,0/18
S31E F59M S63F,Ctrl,1.65 0.88 1.12 0.68 1.55 1.10,0/18
R100S D106T,Ctrl,n.d. n.d. n.d. n.d. n.d. n.d.,0/18
S53A R100D,Ctrl+GPLM_Gen,-0.06 -0.02 -0.31 -0.27 0.08 0.02; 0.01 -0.01 -0.05 -0.24 -0.10 -0.20,1/36 (2.15)
F27E S31E R56E G103A,Ctrl,n.d. n.d. n.d. n.d. n.d. n.d.,0/18
G26K T58V,Ctrl,n.d. n.d. n.d. n.d. n.d. n.d.,0/18
N30D R100T F105V,Ctrl,n.d. n.d. n.d. n.d. n.d. n.d.,0/18
N30S S31E T58V G61V D62Q S63F A102E D106L S107T,Ctrl,n.d. n.d. n.d. n.d. n.d. n.d.,0/18
A101F F105Y,Ctrl,n.d. n.d. n.d. n.d. n.d. n.d.,0/18
S31Q A102H T104F S107L,Ctrl,n.d. n.d. n.d. n.d. n.d. n.d.,0/18
F59S R100S D106N,Ctrl,n.d. 1.60 n.d. n.d. n.d. n.d.,1/18 (2.62)
F27R T104P,Ctrl,n.d. n.d. n.d. n.d. n.d. n.d.,0/18
F27N T28E N30D,Ctrl,n.d. 1.85 n.d. n.d. n.d. 2.20,0/18
N30Q S53A G61L R100Q D106V S107V,Ctrl,n.d. n.d. n.d. n.d. n.d. n.d.,0/18
F27E A101Y F105D,Ctrl,n.d. n.d. n.d. n.d. n.d. n.d.,0/18
F59R G61S S63F R100K,Ctrl,n.d. n.d. n.d. 2.67 2.79 n.d.,0/18
T28S R56M K65D G99L T104L,Ctrl,n.d. n.d. n.d. n.d. n.d. n.d.,0/18
K65R D106S,Ctrl,n.d. n.d. 1.79 n.d. n.d. n.d.,0/18
T28W I34G S107D,Ctrl,n.d. n.d. n.d. n.d. n.d. n.d.,0/18
G26E S31K F59A R100S G103I S107A,Ctrl,n.d. n.d. n.d. n.d. n.d. n.d.,0/18
A101M F105N D106E S107L,Ctrl,n.d. n.d. n.d. n.d. n.d. n.d.,0/18

Excerpt, the first 4 entries:

changes,group,"log10 Kd, replicates",empty controls
G61S A102P,Ctrl,0.75 1.07 0.36 1.29 1.00 1.12,0/18
R100T T104S,Ctrl,0.67 0.42 1.47 0.61 0.33 0.35,0/18
T28S A101E,Ctrl+GPLM_Gen,-0.70 -0.45 -0.27 -0.56 -0.36 -0.21; -0.15 -0.13 -0.11 -0.48 -0.16 -0.36,0/36
S31D A101G T104A,Ctrl,n.d. n.d. n.d. n.d. n.d. n.d.,0/18

Empty control strains, which show no peptide, gave a signal in 1% of pairings with all heavy chain designs; the median was 2.08 and 95% of these signals were weaker than 0.84. No background was subtracted. For each scFv, signals with the empty controls are counted beside the result, with their mean in brackets.
Of ten entries with the parent sequence, four were seen in most replicates (averages 0.34 to 2.37), three in one and three in none, so single entries are noisy.
Some sequences occur more than once in the pool; their replicates are listed entry by entry, parted by semicolons.
In the paper, a design with two or fewer of six values counts as a poor binder.